Measured values from publication PMC8480965 (The Journal of General Physiology, 2021).

Tests used:
[1] = system: endogenous Kv2 proteins of CA1 pyramidal neurons; set-up: species or system rat; settings: for kΔF of individual puncta, 0-mV step / kΔF of ROI 1, 0-mV step: 30°C
Kv2.2-GFP = assay: GxTX-594 labeling and colocalization imaging, Kv2.2-GFP; type: binding, rat; settings: CHO cells, 100 nM, 5 min, Pearson correlation
BK-GFP = assay: GxTX-594 labeling and colocalization imaging, BK-GFP; type: binding, mouse; settings: 100 nM

CCCC[C@H](NC(=O)[C@@H]1CCCN1C(=O)[C@H](Cc1ccccc1)NC(=O)[C@H](CC(N)=O)NC(=O)[C@@H]1CSSC[C@@H]2NC(=O)[C@H](C)NC(=O)[C@@H]3CCCN3C(=O)[C@H](CCCCN)NC(=O)CNC(=O)[C@H](CSC3CC(=O)N(CCCCCNC(=O)c4ccc(C5=c6cc7c(cc6Oc6cc8c(cc65)C(CS(=O)(=O)O)=CC(C)(C)N8C)=[N+](C)C(C)(C)C=C7CS(=O)(=O)[O-])c(C(=O)O)c4)C3=O)NC(=O)CNC(=O)[C@@H]3CSSC[C@H](NC(=O)[C@H](C(C)C)NC(=O)[C@H](Cc4ccc(O)cc4)NC(=O)[C@H](CCCCN)NC(=O)[C@@H]4CCCN4C(=O)[C@H](CSSC[C@H](NC(=O)[C@H](CCC(=O)O)NC(=O)CNC(=O)[C@@H](N)CCC(=O)O)C(=O)NCC(=O)NCC(=O)N[C@@H](Cc4ccccc4)C(=O)N[C@@H](Cc4c[nH]c5ccccc45)C(=O)N[C@@H](Cc4c[nH]c5ccccc45)C(=O)N[C@@H](CCCCN)C(=O)N3)NC2=O)C(=O)N[C@@H](CO)C(=O)N2CCC[C@H]2C(=O)N[C@@H](CCCCN)C(=O)N[C@@H](Cc2c[nH]c3ccccc23)C(=O)NCC(=O)N[C@@H](CC(C)C)C(=O)N1)C(=O)N1CCC[C@H]1C(=O)O (some centres unmarked) [GxTX-594, Ser13Cys (Alexa Fluor 594) GxTX-1E]
kΔF of individual puncta, 0-mV step ([1]; 100 nM, puncta 4 (red)): 0.067 ± 0.025 s⁻¹ | kΔF of individual puncta, 0-mV step ([1]; 100 nM, puncta 5 (dark red)): 0.12 ± 0.056 s⁻¹ | kΔF of ROI 1, 0-mV step ([1]; 100 nM, slice 1 (yellow)): 0.068 ± 0.026 s⁻¹ | kΔF of ROI 1, 0-mV step ([1]; 100 nM, slice 2 (red)): 0.068 ± 0.046 s⁻¹ | fluorescence change in ROI 1 compared with ROI 2 and ROI 3, step to 0 mV ([1]; 100 nM, three slices, ANOVA P < 0.001, Tukey's P < 0.001): significant decrease in fluorescence in ROI 1 | response of puncta to depolarization to 0 mV ([1]; 100 nM, −70 to 0 mV): loss of fluorescence from a subset of puncta | voltage sensitivity of Kv2 protein at discrete individual clusters ([1]; CA1 neurons): majority of Kv2 protein detected at discrete individual clusters was voltage sensitive | subcellular colocalization with Kv2.2-GFP (Kv2.2-GFP): high degree of subcellular colocalization | ratio of GxTX-594 fluorescence to GFP (BK-GFP; rinsed, n = 10 cells): not distinguishable from zero | colocalization with GFP-tagged channel (BK-GFP; Pearson correlation): no colocalization was apparent | labeling (Fig. S2) (BK-GFP; confocal): no indication of GxTX-594 labeling

Where two headings read alike, the source gives them in different places.
